# AlphaSeq binding of Ab-14 heavy chain variants to a spike HR2 peptide

Antigen: PDVDLGDISGINAS, a 14-residue peptide of the SARS-CoV-2 spike HR2 region.

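The starting antibody came from a phage panning campaign against this peptide. The variants were designed computationally from a first round of random CDR variants and then made and measured. Group labels follow the data file (Ctrl: baseline library sampled from a position-specific scoring matrix, with some repeated check sequences; Rand: our label for a block that the file lists under HC and that is probably the random mutants of the ten best first-round binders; En: ensemble of fine-tuned language models; GP: Gaussian process model; GPLM: also part of the Gaussian process libraries; HC: hill climbing; Gen: genetic algorithm; Gibbs: Gibbs sampling; a sequence that several methods proposed may carry one label only). The assay is AlphaSeq: two haploid yeast populations carry antibody and antigen on their surface. After mating in shaken culture at 30 °C for 16 h, diploids were selected and their barcode pairs sequenced. Scores were corrected for input abundance and mapped to Kd with protein pairs of known affinity run in the same pool. Mating was done six times.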

Parent scFv Ab-14: VH joined to VL by a 15-residue (Gly4Ser)3 linker. Changes lie in the heavy chain CDRs alone.
VH: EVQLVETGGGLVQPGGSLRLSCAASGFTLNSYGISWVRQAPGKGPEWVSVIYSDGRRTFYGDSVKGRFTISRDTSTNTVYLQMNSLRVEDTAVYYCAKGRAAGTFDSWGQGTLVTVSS
VL: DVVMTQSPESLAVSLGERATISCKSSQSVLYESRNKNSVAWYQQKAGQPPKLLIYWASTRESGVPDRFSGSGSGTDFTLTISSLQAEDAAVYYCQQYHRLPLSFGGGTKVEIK

The parent's heavy chain CDRs are GFTLNSYGIS, VIYSDGRRTFYGDSVK, GRAAGTFDS; each variant's own CDRs replace them letter for letter. Values are log10 of the apparent Kd in nM; lower means stronger binding. Averages over replicates are reported, and they cover detected replicates only. "ND" means that the variant was in the library but no mating with the target was seen in that replicate; the authors take this as a sign of poor binding, and no number exists. The range of this assay differs from that of the first round, and the authors advise against merging the two.

CDR-H1,CDR-H2,CDR-H3,group,"log10 Kd, replicates","log10 Kd (nM), mean"
GFGLNSYGIS,VIYSDGLRTFYSDFVK,GRAAGFFDS,Ctrl,ND ND ND ND ND ND,ND
GFGLNNYGIS,VIYSDGRRTFYGDSVK,GRAAGTFDS,Ctrl,ND 0.75 ND 2.26 ND ND,1.51
GFTLNEYGIS,VIYSDGRRTFYGDSVK,GRMAGTFDA,GP_HC,0.85 0.96 0.96 0.91 1.09 1.53,1.05
GFSLDEYGIS,VIYADGVRTQYHPKVK,GLGGFIFGL,En_Gibbs,ND ND ND ND ND ND,ND
GFNLSEYGIS,VIYADGMRSNYADSVK,GHGGNFFID,En_Gibbs,ND ND ND ND ND ND,ND
GFTLNMYGIS,VIYSDGKRTFYSDSVK,GRAAGTFDS,GPLM_HC,1.98 1.65 1.12 0.98 2.09 2.00,1.64
GFDLNEYGIS,VIYADGSRTAYADSVK,GENAGTFDM,En_Gen,0.55 0.93 -0.44 -0.11 -0.59 0.61,0.16
GFELNSYGIS,VIYSDGRRTFYTDSVK,GREAGTFDS,GPLM_HC,-0.07 -0.50 -0.08 -0.32 -0.03 -0.51,-0.25
GFDLNSYGIS,VIYSDGRRTFYGDSVK,GMAAYWYNS,Rand,ND ND ND ND ND ND,ND
GFDLNSYGIS,VIYSDGRRTFYQDSVK,GKAAGTFDA,GP_Gen,0.69 0.32 -0.02 0.06 0.27 0.50,0.30
GFTLNSYGIS,VMYSDGRRTFYGDSVK,GRAAGGFDS,Ctrl,ND ND ND ND ND ND,ND
GFDLDEYGIS,VIYADGQRTAYTDSVK,GQNAGTFDV,En_Gen,0.75 0.38 1.01 0.83 0.90 1.55,0.90
GFDLGEYGIS,VIYADGRRFAYSQAVK,GLNEGMLDI,En_Gibbs,ND 3.48 ND ND ND ND,3.48
GFNLNSYGIS,VIYSDGRRTFYGDSVK,GQTAGTFDS,GPLM_Gen,ND ND 0.60 0.18 ND ND,0.39
GFELNSYGIS,VIYSDGRRTFYADSVK,GRVAGTFDK,GPLM_Gibbs,1.21 0.97 1.92 1.07 1.50 1.46,1.35
GFVLNSYGIS,VIYSDGRRTFYGDSVK,GRAAGTSDS,Ctrl,ND ND ND ND ND ND,ND
GFTINSYGIS,VIYSDGYRTFYGDSVK,GWNAGTFFS,Ctrl,ND ND ND ND ND ND,ND
GFDLNEYGIS,VIYADGMRTAYADNVK,GNTAGTFDQ,En_Gen,ND ND ND ND ND ND,ND
GFNLNEYGIS,VIYADGRRSFYTDSVK,GEAAGTFDV,En_HC,-0.61 -0.32 -0.58 -0.67 -0.52 -0.71,-0.57
GFDLDEYGIS,VIYADGKRTAYVDSVK,GNVAGTFDL,En_Gen,ND 0.26 -0.08 -0.66 1.18 0.48,0.24

Second part, the sequence after the result:

"log10 Kd, replicates","log10 Kd (nM), mean",CDR-H1,CDR-H2,CDR-H3,group
0.43 0.31 0.49 0.02 -0.14 0.56,0.28,GFTLNSYGIS,VIYSDGRRTFYSDSVK,GQTAGTFDA,GP_Gen
0.15 0.53 0.03 0.28 0.23 0.12,0.22,GFSLNSYGIS,VIYSDGRRTFYADNVK,GRTAGTFDA,GP_Gibbs
0.12 0.10 -0.23 -0.47 0.05 0.37,-0.01,GFSLNSYGIS,VIYSDGRRTFYADSVK,GNAAGTFDK,GPLM_Gen
ND ND ND ND ND ND,ND,GFDLEEYGIS,VIYADGQRFAYAQEFK,GEAGGAFDL,En_Gibbs
ND ND ND ND ND ND,ND,GFDLEKYGIS,VIYADGMRSEYDQSVK,GENAGYNMI,En_Gibbs
ND 0.44 ND ND ND ND,0.44,GFMLNQYGIS,VIYSDGRRTFYGDSVK,GSASGTFDS,Ctrl
-0.33 0.06 -0.05 -0.35 -0.44 -0.16,-0.21,GADLNEYGIS,VIYADGRRVEYENSFK,GHVAGTFDS,En_Gibbs
ND 2.49 ND 1.50 1.65 1.73,1.84,GFTLNSYGIS,VIYSDGRRTFYHDSVK,GELAATSDP,Ctrl
2.96 ND 2.52 ND ND 2.59,2.69,GDSLNSYGIS,VIYSDGRRTFYGDSVK,GRTAGTFDS,GP_Gibbs
0.40 1.01 0.52 0.72 0.71 1.28,0.77,GFDLEDYGIS,VIYADGRRTAYTDSVK,GEAAGTFDV,En_HC
-0.30 -0.38 -0.44 -0.72 -0.46 -0.29,-0.43,GFDINEYGIS,VIYADGRRTFYADSVK,GGNAGTFDV,En_HC
-0.85 -1.10 -0.99 -1.16 -1.67 -0.85,-1.10,GFDLDEYGIS,VIYADGKRTAYSDSVK,GNVAGTFDQ,En_Gen
ND ND 2.40 ND ND ND,2.40,GFDIDEYGIS,VIYADGQRTAYKPTVK,GNNTGLVFI,En_Gibbs
0.82 0.79 0.66 1.73 ND 1.86,1.17,GFTLESYGIS,VIYSDGRRTFYGDSVK,GTAAGTKDT,Ctrl
1.17 0.36 0.49 0.45 0.67 0.55,0.61,GFELNSYGIS,VIYSDGRRTFYHDSVK,GNAAGTFDS,GP_Gen
-0.53 -0.46 -0.19 -0.68 -0.55 -0.37,-0.47,GFDLDEYGIS,VIYADGMRTAYADKVK,GNNAGTFDL,En_Gen
0.89 0.74 0.65 0.42 0.94 0.43,0.68,GFDLNEYGIS,VIYADGMRTFYSDSVK,GENAGTFDL,En_Gen
-0.46 -0.65 -0.54 -0.88 -0.75 -0.55,-0.64,TFTLNDYGIS,VIYSDGRRTFYGDSVK,GRAALDFIS,Rand
ND ND ND ND ND ND,ND,GFNLNSYGIS,VIYSDGRRTFYKDSVK,GKAAGTFDS,GPLM_Gibbs
ND ND ND ND 3.26 ND,3.26,GFTLNSYGIS,VIYSDGRRTFYSDSVK,GKAGGTFDR,GP_HC
0.68 ND ND ND ND 0.64,0.66,GFILDEYGIS,VIYADGERTMYSNRVK,GNEGGTFDF,En_Gibbs

The last 4 entries again:

{"CDR-H1": "TFTLNDYGIS", "CDR-H2": "VIYSDGRRTFYGDSVK", "CDR-H3": "GRAALDFIS", "group": "Rand", "log10 Kd, replicates": "-0.46 -0.65 -0.54 -0.88 -0.75 -0.55", "log10 Kd (nM), mean": "-0.64"}
{"CDR-H1": "GFNLNSYGIS", "CDR-H2": "VIYSDGRRTFYKDSVK", "CDR-H3": "GKAAGTFDS", "group": "GPLM_Gibbs", "log10 Kd, replicates": "ND ND ND ND ND ND", "log10 Kd (nM), mean": "ND"}
{"CDR-H1": "GFTLNSYGIS", "CDR-H2": "VIYSDGRRTFYSDSVK", "CDR-H3": "GKAGGTFDR", "group": "GP_HC", "log10 Kd, replicates": "ND ND ND ND 3.26 ND", "log10 Kd (nM), mean": "3.26"}
{"CDR-H1": "GFILDEYGIS", "CDR-H2": "VIYADGERTMYSNRVK", "CDR-H3": "GNEGGTFDF", "group": "En_Gibbs", "log10 Kd, replicates": "0.68 ND ND ND ND 0.64", "log10 Kd (nM), mean": "0.66"}

The authors averaged sequences with at least three values out of six and counted those with two or fewer as poor binders. Background: pairings of all heavy chain designs with three empty control strains gave a value in 1% of cases (median 2.08, 5th percentile 0.84). Values in that range, when seen in few replicates, are hard to tell from nonspecific mating. Of ten entries with the parent sequence, four were seen in most replicates (averages 0.34 to 2.37), three in one and three in none, so single entries are noisy.

Source: Li et al. 2023 (doi:10.1038/s41467-023-39022-2), MIT Lincoln Laboratory and A-Alpha Bio; data file from the FLAb repository.